This note sets out measurements from PubChem BioAssay (Tox21).

The list shows a part of the results, in another mix than the full data. Records with an inconclusive call do not appear. Entries that show only a call come without a potency. Activity calls are given as the source filed them. Calls come from the whole dose curve; as a rule, active = well fitted cell-killing curve with a large enough effect in the repeat runs; inconclusive = weak or mixed curves; inactive = flat fitted curve, though single readings scatter.
Potency is the fitted concentration of half-maximal effect.

This assay can be described thus: qHTS RealTime-Glo MT Cell Viability Assay in HepG2 cells - 8 hour (AID 1224873). Note: nearly all actives have a fitted effect of over 55% in size. As to conditions: RealTime-Glo luminescence; series mostly up to 76.8 µM. The source says:
National Center for Advancing Translational Sciences [NCATS]
NIH Chemical Genomics Center [NCGC]
U.S. Environmental Protection Agency [EPA]
National Institutes of Environmental Health Sciences [NIEHS]
National Toxicology Program [NTP]
U.S. Food and Drug Administration [FDA]
Measure of cell viability is critical in the cell-base assay. Analysis of cell viability is necessary for the characterization of cell responses to cytotoxic drugs and environmental stress. A RealTime-Glo MT Cell Viability Assay to monitor cell viability in real time of continues cell culture during 40 hours of compound treatment was used to screen Tox21 10K library compounds in HepG2 cells. The RealTime-Glo MT Cell Viability Assay is a nonlytic, homogeneous, bioluminescent method to measure cell viability in real time using a simple, plate-based method. The assay involves adding NanoLuc luciferase and a cell-permeant prosubstrate to cells in culture. Viable cells reduce the proprietary prosubstrate to generate a substrate for NanoLuc luciferase. This substrate diffuses from cells into the surrounding culture medium, where it is rapidly used by the NanoLuc Enzyme to produce a luminescent signal. The signal correlates with the number of viable cells, making the assay well suited for cytotoxicity studies.
Tox21 Assay Protocol Summary:
The mixture of HepG2 cell suspension and reagents were dispensed at 600cells/6 ul/well in 1536-well tissue culture treated black solid bottom plates using a Multidrop dispenser. After the assay plates were incubated at a 37 C/5% CO2 incubator for 5 hours, 23 nL of compounds dissolved in DMSO, positive and negative controls was transferred to the assay plate by a pintool work station. The plates were incubated at 37 C for 40 hours. The luminescence intensity were measured at 0h, 8h, 16h, 24h, 32h and 40h time points using ViewLux plate reader during compound treatment.
Consider `CN(C(=O)Cc1cccc2occc12)[C@H]1CC[C@@]2(CCCO2)C[C@@H]1N1CCCC1`, for which the Potency entry was “inactive”.

On to `CC(C)OP(=S)(OC(C)C)SCCNS(=O)(=O)c1ccccc1`, for which the Potency entry was “inactive”.

Take `O=P(Cl)(Cl)c1ccccc1`: the Potency entry was “inactive”.

As to `O=[N+]([O-])c1ccc(S(=O)(=O)O)c([N+](=O)[O-])c1`, the Potency entry was “inactive”.

With `CN(C(=O)Cc1ccc(Cl)c(Cl)c1)[C@H]1CC[C@@]2(CCCO2)C[C@@H]1N1CCCC1`, the Potency result is “inactive”.

Take `CN(C(=O)Cc1ccccc1)[C@H]1CC[C@@]2(CCCO2)C[C@@H]1N1CCCC1`: the Potency result is “inactive”.

Take `O=P(Cl)(Oc1ccccc1)Oc1ccccc1`: the Potency entry was “inactive”.

As for `CCCCOP(OCCCC)OCCCC`, the Potency result was “inactive”.

For the compound `CCNC(C)Cc1ccc2c(c1)OCO2` (stereo not drawn), the Potency result is “inactive”.

For `O=[P+](Oc1ccccc1)Oc1ccccc1`, the Potency result was “inactive”.

As for `CCCCO[P+](=O)OCCCC`, the Potency result was “inactive”.

Turning to `CCCCC(CC)CO[P+](=O)OCC(CC)CCCC` (stereo not drawn), the Potency result was “inactive”.

Regarding `NC(=O)Nc1ccc([As](=O)(O)O)cc1`, the Potency entry was “inactive”.

With `CCOP(=S)(CC)Sc1ccccc1` (stereo not drawn), the Potency result is “inactive”.

With `O=[As]c1ccccc1` (stereo not drawn), the Potency is active: 1.74 µM.

For `Cc1cc([N+](=O)[O-])cc([N+](=O)[O-])c1O`, the Potency result is “inactive”.

Turning to `Cc1cc([N+](=O)[O-])c(O)c([N+](=O)[O-])c1`, the Potency entry is “inactive”.

As to `CCOC(=O)Cl`, the Potency result was “inactive”.

For the compound `CN(N=O)C(=N)N[N+](=O)[O-]`, the Potency entry was “inactive”.

Take `CCC(C)(OOC(C)(C)C)OOC(C)(C)C`: the viability change, negative = cytotoxic was inactive: -14.3% [at 15.8 µM].

Turning to `O=C(Cl)OCCOC(=O)Cl`, the Potency result is “inactive”.

For `CC(C)CCCCCCCOP(OCCCCCCCC(C)C)Oc1ccccc1`, the Potency entry is “inactive”.

As for `O=C(Cl)Oc1ccccc1`, the Potency result is “inactive”.

Consider `COP(=S)(Cl)OC`, for which the Potency result is “inactive”.

Regarding `COC(=O)Cl`, the Potency entry is “inactive”.

Turning to `O=[p+]1oc2ccccc2c2ccccc21` (stereo not drawn), the Potency result is “inactive”.

Turning to `O=[N+]([O-])c1ccc([N+](=O)[O-])cc1`, the Potency is active: 43.6 µM.

With `ClP(Cl)c1ccccc1`, the Potency entry is “inactive”.
